The list shows a part of the results, in another mix than the full data. Inconclusive results are not listed. Calls of active or inactive are those of the source. Calls come from the whole dose curve.
These compounds were tested against Importin subunit beta-1 (Homo sapiens) (UniProt Q14974) (assay: qHTS Assay for Inhibitors of Rango (Ran-regulated importin-beta cargo) - Importin beta complex formation). Details: Rango CFP/YFP FRET sensor + importin beta, 45 min; at 92.2 µM (top of the series).
Excerpt: NIH Molecular Libraries Probe Production Centers Network [MLPCN] NIH Chemical Genomics Center [NCGC] MLPCN Grant: R03 MH090808-01A1 Assay Submitter (PI): Petr Kalab NCGC Assay Overview: The small GTPase Ran regulates transport of macromolecules between the nucleus and the cytoplasm (nuclear transport) and has important functions in mitotic spindle assembly, nuclear envelope (NE) formation and nuclear pore complex (NPC) assembly. RanGTP gradient is thought to promote spindle assembly by providing a spatial clue to microtubule nucleation and Aurora A activation. Because the localized release and binding of importin alpha cargo relays this spatial clue to SAFs, inhibitors of the Rango - importin beta complex can then be used in further understanding their role in cell cycle specifically in mitosis progression. […] The assay used a fluorescence resonance energy transfer (FRET) Rango biosensor that contains the IBB of human snurportin 1 flanked by yellow fluorescent protein (EYFP) at the amino terminus and cerulean CFP10 at the carboxy terminus. […] FRET readings were obtained at two time points. FRET reading prior to importin beta addition (pre-read) were used flag potential compound interference; FRET reading after importin beta addition (post-read) were used to identify inhibitors using the FRET ratio parameter. […]
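Note: 0% = DMSO wells and 100% = buffer wells lacking importin beta; nearly all actives have a fitted effect of over 15% in size.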

Protein sequences, listed by entry. Tags and fused reporters are not part of them.
UniProt Q14974, whole entry: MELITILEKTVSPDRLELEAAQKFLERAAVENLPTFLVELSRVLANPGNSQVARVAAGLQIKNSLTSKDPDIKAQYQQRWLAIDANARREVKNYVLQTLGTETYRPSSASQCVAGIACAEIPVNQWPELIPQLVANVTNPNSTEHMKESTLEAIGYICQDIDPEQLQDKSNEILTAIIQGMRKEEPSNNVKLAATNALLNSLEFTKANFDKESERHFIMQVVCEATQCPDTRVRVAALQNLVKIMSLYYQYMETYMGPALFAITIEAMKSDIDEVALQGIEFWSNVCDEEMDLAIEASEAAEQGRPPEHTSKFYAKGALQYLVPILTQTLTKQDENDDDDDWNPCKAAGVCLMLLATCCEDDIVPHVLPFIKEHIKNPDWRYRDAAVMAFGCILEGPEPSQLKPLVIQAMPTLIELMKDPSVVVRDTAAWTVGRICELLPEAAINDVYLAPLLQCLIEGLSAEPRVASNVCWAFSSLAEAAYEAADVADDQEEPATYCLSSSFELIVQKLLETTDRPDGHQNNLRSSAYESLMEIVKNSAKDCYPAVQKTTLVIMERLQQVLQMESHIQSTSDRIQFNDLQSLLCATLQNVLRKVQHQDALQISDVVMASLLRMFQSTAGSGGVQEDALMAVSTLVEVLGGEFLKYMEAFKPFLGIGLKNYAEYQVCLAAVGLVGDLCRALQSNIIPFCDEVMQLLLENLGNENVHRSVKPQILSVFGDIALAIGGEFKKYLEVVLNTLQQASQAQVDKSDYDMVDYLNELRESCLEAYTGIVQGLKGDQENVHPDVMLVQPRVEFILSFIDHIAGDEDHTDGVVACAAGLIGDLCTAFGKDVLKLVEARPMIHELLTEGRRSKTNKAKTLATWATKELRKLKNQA
UniProt O95149, whole entry partner: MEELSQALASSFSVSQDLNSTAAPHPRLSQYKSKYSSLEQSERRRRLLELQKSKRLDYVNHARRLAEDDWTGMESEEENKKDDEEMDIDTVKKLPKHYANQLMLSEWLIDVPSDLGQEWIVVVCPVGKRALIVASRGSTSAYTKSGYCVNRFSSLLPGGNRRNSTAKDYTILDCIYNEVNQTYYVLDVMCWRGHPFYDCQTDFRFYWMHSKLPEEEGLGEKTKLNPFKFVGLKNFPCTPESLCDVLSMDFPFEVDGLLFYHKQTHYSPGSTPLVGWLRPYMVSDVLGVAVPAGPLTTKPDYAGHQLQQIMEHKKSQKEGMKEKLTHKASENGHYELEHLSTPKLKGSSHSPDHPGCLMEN

Row | SMILES | inhibition of complex formation
1 | CCC(=O)N(c1ccccc1)C1(COC)CCN(CCn2nnn(CC)c2=O)CC1 | inactive: -0.455%

Reference: PubChem BioAssay AID540263 (National Center for Advancing Translational Sciences (NCATS), 2011)
